Here are results for 1 substance from US20240252520A1 (priority 2023, published 2024).

The experiment deals with diabetic db/db mice. Description: LNP-FGF2, LNP-IL-2, LNP-CHI3L1, LNP-IL-17A mRNA bandages in db/db mice (Example 15). Format: in vivo, mouse. The text has this: The mRNAs and bandages used in these studies were the same as those described in Example 7 above, except that the IL-2 ORF7 mRNA was replaced with an mRNA encoding full length wildtype mouse IL-2 (SEQ ID NO: 14), designated here as “IL-2”. The new IL-2 mRNA had the same general structure as the mRNAs described in Example 7, i.e., full substitution of both Pseudo-U and 5-Methyl-C, a 5′ cap structure, a 5′ UTR, a 3′ UTR, a polyA tail, and it was not codon optimized. The IL-2 coding region in the IL-2 mRNA was encoded by SEQ ID NO: 13.
We then evaluated the efficacy of LNP-FGF2, LNP-IL-2, LNP-CHI3L1, and LNP-IL-17A mRNA treatment in diabetic db/db mice. This is the same db/db mouse model described in Example 7 above. Two 6-mm punch biopsy full-thickness wounds were created on the dorsum of 16-week-old diabetic db/db mice (FIG. 19A). Macroporous bandages loaded with 4 μg of LNP-FGF2, LNP-IL-2, LNP-CHI3L1, and LNP-IL-17A mRNA were topically applied on the wounds for 10 days. Blank bandages and bandages loaded with eGFP, CHI3L1 protein and IL-2 protein were also employed as additional controls. The wound size was measured every three days.

Take “IL-2 protein: bandages loaded with IL-2 protein employed as additional control”: the “wound healing during the whole period vs blank bandage (repeated measurement analysis)” value (4 μg bandage, D0 to D10) is “no differences in wound healing”. Further, for the setting “Day 10, compared with blank”, the “wound reduction on Day 10” value is listed as “similar”.
